## Binding of CDR-mutated scFvs to a peptide of the spike HR2 region

Data: MIT Lincoln Laboratory AlphaSeq set, Li et al. 2023, doi:10.1038/s41467-023-39022-2, as distributed in FLAb.

Target peptide (SARS-CoV-2 spike, HR2 region): PDVDLGDISGINAS

Parent: Ab-14, a human scFv built as VH, a (GGGGS)3 linker, VL. Only the CDRs of the heavy chain vary.
VH: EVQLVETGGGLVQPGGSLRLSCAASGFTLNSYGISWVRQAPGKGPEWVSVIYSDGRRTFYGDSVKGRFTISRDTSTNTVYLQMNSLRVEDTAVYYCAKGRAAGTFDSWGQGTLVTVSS
VL: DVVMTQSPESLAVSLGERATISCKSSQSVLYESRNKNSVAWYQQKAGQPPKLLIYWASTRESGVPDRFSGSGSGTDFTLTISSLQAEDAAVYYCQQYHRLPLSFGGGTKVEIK

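These sequences belong to a second round, designed from the earlier measurements on random variants of the parent. Their group label is 14H_En_Gen (En: ensemble of fine-tuned language models; Gen: genetic algorithm). The scFvs were displayed on barcoded MATa yeast, the peptide on MATalpha yeast. Pairs that bind mate more often; barcode pairs of the diploids are counted by sequencing. Scores were corrected for input abundance and mapped to Kd with protein pairs of known affinity run in the same pool. There are six technical replicates.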

The parent's heavy chain CDRs are GFTLNSYGIS, VIYSDGRRTFYGDSVK, GRAAGTFDS; each variant's own CDRs replace them letter for letter.
Scale: log10 of Kd in nM, estimated from mating counts; low values are strong binders.
Averages over replicates are reported, and they cover detected replicates only.
"nd" marks a missing value. The strain was present, yet no cells mated with the target were sequenced in that replicate, which points to weak or no binding.
Nonspecific signal, from three strains lacking the peptide, appeared in 1% of pairings of all heavy chain designs, centred on 2.08 (5% of these signals below 0.84); values are not corrected for it. Also given: how often the same scFv was detected with the empty control strains.
A sequence measured in both rounds can read differently, since the two assays cover different ranges.
Of ten entries with the parent sequence, four were seen in most replicates (averages 0.34 to 2.37), three in one and three in none, so single entries are noisy.
The authors averaged sequences with at least three values out of six and counted those with two or fewer as poor binders.

The variant GFDLNEYGIS, VIYADGMRTYYADDVK, GNNAGTFDM showed -0.27, -0.59, -0.77, -0.80, 1.75, -0.55 (mean -0.21; controls 0 of 18).
The variant GFDLNEYGIS, VIYADGKRTAYTDSVK, GNQAGTFDV showed -0.34, -0.49, 0.32, -0.28, -0.30, -0.51 (mean -0.27; controls 0 of 18).
The variant GFDLNEYGIS, VIYADGMRTAYIDSVK, GNQAGTFDL showed 0.09, -0.01, -0.40, -0.39, 0.07, 0.37 (mean -0.04; controls 0 of 18).
The variant GFDLDEYGIS, VIYADGMRTFYADSVK, GEVAGTFDI showed 0.45, 0.10, 0.69, 0.00, 0.26, 0.57 (mean 0.34; controls 0 of 18).
The variant GFDLNEYGIS, VIYADGMRTAYAEDVK, GENAGTFDV showed 0.37, 0.12, -0.25, 0.58, 0.45, 1.00 (mean 0.38; controls 0 of 18).
The variant GFDLNEYGIS, VIYADGMRTAYSDSVK, GQTAGTFDI showed -0.47, 0.17, -0.31, -0.73, -0.95, -0.37 (mean -0.44; controls 0 of 18).
The variant GFDLNEYGIS, VIYADGVRTAYADSVK, GNEAGTFDQ showed 0.98, -0.09, 1.00, -0.37, -0.14, 0.39 (mean 0.29; controls 0 of 18).
The variant GFDLNEYGIS, VIYADGMRKAYADSVK, GENAGTFDM showed -0.16, nd, 1.20, 2.04, nd, 1.46 (mean 1.13; controls 0 of 18).
The variant GFDLNEYGIS, VIYADGVRTAYADSVK, GQTAGTFDI showed -0.02, -0.69, -0.28, -0.85, -0.78, -0.62 (mean -0.54; controls 0 of 18).
The variant GFDLNEYGIS, VIYADGKRTAYSDSVK, GETAGTFDI showed nd, nd, nd, 0.41, 1.94, nd (mean 1.18; controls 0 of 18).
The variant GFDLDEYGIS, VIYADGKRTYYADSVK, GNQAGTFDV showed -0.17, -0.10, -0.17, -0.54, -0.57, 0.08 (mean -0.25; controls 0 of 18).
The variant GFDLDEYGIS, VIYADGKRTFYADSVK, GENAGTFDI showed -0.52, -1.06, -1.24, -1.14, -0.94, -0.39 (mean -0.88; controls 0 of 18).
The variant GFDLDEYGIS, VIYADGVRTYYADSVK, GENAGTFDV showed -0.40, -0.40, -0.20, 0.10, -0.49, -0.06 (mean -0.24; controls 0 of 18).
The variant GFDLNEYGIS, VIYADGSRTAYSDSVK, GEVAGTFDL showed -0.37, -0.12, -0.49, -0.49, -0.23, -0.14 (mean -0.31; controls 0 of 18).
The variant GFDLNEYGIS, VIYADGVRTAYADSVK, GNVAGTFDF showed -0.13, 0.38, -0.02, -0.20, -0.39, 0.23 (mean -0.02; controls 0 of 18).
The variant GFDLEEYGIS, VIYADGRRTAYADSVK, GNVAGTFDV showed 0.52, -0.06, 0.66, -0.30, -0.25, -0.38 (mean 0.03; controls 0 of 18).
The variant GFDLNEYGIS, VIYADGMRTAYSDSVK, GNVAGTFDK showed -0.50, -0.67, -0.66, -1.17, -0.60, 0.33 (mean -0.55; controls 0 of 18).
The variant GFDLEDYGIS, VIYADGMRTAYADSVK, GNNAGTFDI showed 0.11, 0.09, -0.32, -0.41, 0.19, 0.42 (mean 0.01; controls 0 of 18).
The variant GFDLNEYGIS, VIYADGVRKAYADDVK, GNVAGTFDV showed -0.63, -0.24, -0.44, -0.67, -0.60, -0.28 (mean -0.48; controls 1 of 18).
The variant GFDLNEYGIS, VIYADGSRKAYADSVK, GNVAGTFDV showed -0.07, -0.14, -0.08, -0.10, -0.27, -0.31 (mean -0.16; controls 0 of 18).
The variant GFDLNEYGIS, VIYADGVRKAYADSVK, GNTAGTFDI showed -0.22, -0.52, -0.43, -0.75, -0.82, -0.43 (mean -0.53; controls 0 of 18).
The variant GFDLNEYGIS, VIYADGKRTAYADDVK, GNTAGTFDQ showed -0.37, -0.45, -0.40, -0.48, -0.49, -0.37 (mean -0.42; controls 0 of 18).
The variant GFDLNEYGIS, VIYADGMRTAYADDVK, GKNAGTFDV showed -0.41, -0.18, -0.39, -0.44, -0.34, -0.08 (mean -0.31; controls 0 of 18).
The variant GFDLNEYGIS, VIYADGVRTAYADDVK, GNTAGTFDQ showed 2.50, -0.19, -0.11, -0.50, -0.36, -0.77 (mean 0.09; controls 0 of 18).
The variant GFDLNEYGIS, VIYADGMRKVYADSVK, GNNAGTFDI showed -0.38, -0.24, -0.72, -0.47, -0.55, -0.32 (mean -0.45; controls 1 of 18).
The variant GFDLNEYGIS, VIYADGRRTAYSDSVK, GETAGTFDQ showed 0.97, 0.55, 0.42, 0.32, 0.35, 0.26 (mean 0.48; controls 0 of 18).
The variant GFDLNEYGIS, VIYADGMRTAYSDKVK, GNVAGTFDV showed -0.37, -0.07, -0.34, -0.78, -0.06, 0.42 (mean -0.20; controls 0 of 18).
The variant GFDLNEYGIS, VIYADGKRTAYQDSVK, GENAGTFDV showed -0.04, -0.10, -0.45, -0.19, -0.04, -0.49 (mean -0.22; controls 0 of 18).
The variant GFDLDEYGIS, VIYADGMRTAYADSVK, GEAAGTFDV showed 0.47, 0.55, 0.23, -0.21, 0.59, 0.34 (mean 0.33; controls 0 of 18).
The variant GFDLNEYGIS, VIYADGMRTAYIDSVK, GNVAGTFDT showed -0.40, -0.28, -0.53, -0.70, 0.05, -0.40 (mean -0.38; controls 0 of 18).
The variant GFDLNEYGIS, VIYADGKRTAYADSVK, GQTAGTFDV showed -0.63, -0.79, -0.84, -0.81, -0.75, -0.63 (mean -0.74; controls 0 of 18).
The variant GFDLNEYGIS, VIYADGVRTAYSDSVK, GNVAGTFDQ showed -0.34, -0.66, -0.49, -0.53, -0.53, -0.40 (mean -0.49; controls 0 of 18).
The variant GFDLNEYGIS, VIYADGMRTAYADNVK, GTVAGTFDQ showed -0.79, -0.39, -0.38, -0.65, -0.55, -0.49 (mean -0.54; controls 0 of 18).
The variant GFDLDEYGIS, VIYADGMRTAYTDKVK, GNVAGTFDV showed 0.15, -0.65, -0.71, -0.60, -0.66, -0.36 (mean -0.47; controls 0 of 18).
The variant GFDLNEYGIS, VIYADGMRTAYADSVK, GQVAGTFDV showed -0.28, -0.57, -0.62, -0.69, -0.73, -0.66 (mean -0.59; controls 0 of 18).
The variant GFDLNEYGIS, VIYADGMRTAYADDVK, GNTAGTFDQ showed nd, nd, nd, nd, nd, nd (controls 0 of 18).
The variant GFDLNEYGIS, VIYADGMRTAYTDSVK, GENAGTFDM showed -0.61, -0.33, -0.34, -0.31, 0.17, -0.20 (mean -0.27; controls 0 of 18).
The variant GFDLNEYGIS, VIYADGKRTAYSDSVK, GNQAGTFDT showed -0.37, 0.10, -0.31, -0.81, -0.74, -0.56 (mean -0.45; controls 0 of 18).
The variant GFDLNEYGIS, VIYADGMRTQYADSVK, GENAGTFDL showed 0.05, 0.46, 0.33, -0.21, 0.73, 0.31 (mean 0.28; controls 0 of 18).
The variant GFDLNEYGIS, VIYADGRRTAYADSVK, GTNAGTFDM showed 0.82, 0.17, 0.22, 0.77, 0.51, 0.64 (mean 0.52; controls 0 of 18).
The variant GFDLNEYGIS, VIYADGVRTAYSDSVK, GQNAGTFDI showed 0.04, -0.26, -0.64, -1.13, -0.39, -0.57 (mean -0.49; controls 1 of 18).
The variant GFDLDEYGIS, VIYADGKRTAYADSVK, GSNAGTFDL showed -0.30, -0.29, -0.17, -0.15, -0.04, 0.12 (mean -0.14; controls 0 of 18).
The variant GFDLDEYGIS, VIYADGRRTAYADSVK, GNEAGTFDL showed -0.55, -0.87, -0.17, -0.56, -1.14, -0.12 (mean -0.57; controls 0 of 18).

The last 3 entries again:

| CDR-H1 | CDR-H2 | CDR-H3 | log10 Kd, replicates | mean, log10 nM | empty controls |
|---|---|---|---|---|---|
| GFDLNEYGIS | VIYADGVRTAYSDSVK | GQNAGTFDI | 0.04, -0.26, -0.64, -1.13, -0.39, -0.57 | -0.49 | 1/18 |
| GFDLDEYGIS | VIYADGKRTAYADSVK | GSNAGTFDL | -0.30, -0.29, -0.17, -0.15, -0.04, 0.12 | -0.14 | 0/18 |
| GFDLDEYGIS | VIYADGRRTAYADSVK | GNEAGTFDL | -0.55, -0.87, -0.17, -0.56, -1.14, -0.12 | -0.57 | 0/18 |